The results in this text go back to PubChem BioAssay AID504462 (Sanford-Burnham Center for Chemical Genomics, 2011).

Chains of the proteins cited; added tags and fusions are not shown. Lines headed by an entry give the natural chain unless they say otherwise; changes in a name come on top.
UniProt Q9Y4P1: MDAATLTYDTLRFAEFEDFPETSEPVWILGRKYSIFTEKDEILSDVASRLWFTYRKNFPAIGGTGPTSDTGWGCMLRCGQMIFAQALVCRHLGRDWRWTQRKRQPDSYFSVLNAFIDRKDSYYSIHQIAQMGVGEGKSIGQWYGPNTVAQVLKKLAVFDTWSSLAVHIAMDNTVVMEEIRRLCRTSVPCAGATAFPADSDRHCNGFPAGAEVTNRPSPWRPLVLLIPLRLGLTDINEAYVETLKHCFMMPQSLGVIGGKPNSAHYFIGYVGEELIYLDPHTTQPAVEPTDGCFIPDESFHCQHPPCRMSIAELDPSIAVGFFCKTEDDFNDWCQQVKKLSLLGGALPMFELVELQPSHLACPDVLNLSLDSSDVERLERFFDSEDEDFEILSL

As usually defined, the inhibition is the change of the read-out against control, counted positive when it falls.

The structures appear in SMILES notation. The list shows a part of the results, in another mix than the full data. Active and inactive are the calls of the source. No stated cut-off is given here; in the data, active means inhibition above about 40%; inactive means the rest.

The test addresses Cysteine protease ATG4B (Homo sapiens) (UniProt Q9Y4P1). Put plainly: ATG4B protease inhibitors, primary screen, biochemical, fluorescence, uHTS (AID 504462). As to conditions: ATG4B cleavage of LC3-PLA2, NBD-HPC fluorescence, 1 h; at 8.33 µM; active compounds read high.
Regarding `Clc1n[nH]nc1-c1nn[nH][15n]1`, the inhibition is inactive: -8.23%.

For `CC(C)(C)C(=O)NC(Sc1ncccn1)C(Cl)(Cl)Cl` (stereo not given), the inhibition is inactive: -0.48%.

As to `CCOP(=O)(Nc1ccc(C)cn1)OCC`, the inhibition was inactive: 6.79%.

Take `CN(CCCl)Cc1cc(Cl)c(NC2=NCCN2)c(Cl)c1`: the inhibition is inactive: 7.07%.

In the case of `O=P1(Nc2ccccn2)COc2ccccc2OC1`, the inhibition is inactive: 0.12%.

Consider `CCC1=CC2Cc3nc4ccc(Cl)cc4c(N)c3C(C1)C2` (stereo not given), for which the inhibition is inactive: 8.01%.

With `CCOP(=O)(NC(=NC(C)c1ccccc1)NC(C)c1ccccc1)OCC` (stereo not given), the inhibition was inactive: -6.27%.

Consider `CC1(CBr)Cn2c(nc3ccccc3c2=O)S1` (stereo not given), for which the inhibition was inactive: 3.57%.

Turning to `CC(C)/C=N\N=C(\N)N[N+](=O)[O-]`, the inhibition was inactive: 16.7%.

With `CN(C(=O)Cc1ccc(Cl)c(Cl)c1)[C@@H]1CCCC[C@H]1N1CCCC1`, the inhibition is inactive: 6.97%.

In the case of `COc1ccccc1CNC(=O)COC(=O)C(O)(c1ccccc1)c1ccccc1`, the inhibition is inactive: -6.83%.

Regarding `O=C(/C=C/c1ccccc1)OC1CN2CCC1CC2` (stereo not given), the inhibition was inactive: -1.73%.

As to `CCCC1OP(=O)(Nc2ccccc2)OCC1CC` (stereo not given), the inhibition is inactive: -5.46%.

Regarding `CN(C)C1(CNC(=O)c2ccc(S(C)(=O)=O)cc2)CCCCC1`, the inhibition was inactive: 3.99%.

`Cc1nn(-c2ccccc2)c2c1P(=O)(N1CCOCC1)N(C)C(c1ccccc1)=N2` (stereo not given): the inhibition is inactive: -28.4%.

Take `CC1CCC(C(C)C)C(OP(=O)(Nc2ccccn2)c2ccccc2)C1` (stereo not given): the inhibition was inactive: 2.97%.

With `Cc1ccc(C(=O)OC2CN3CCC2CC3)cc1` (stereo not given), the inhibition is inactive: 4.6%.

As to `O=[As](O)(c1cccs1)c1cccs1`, the inhibition was inactive: 12%.

As to `Cc1ccc(OCC(=O)OC2CN3CCC2CC3)cc1` (stereo not given), the inhibition is inactive: 11.1%.

`O=P1(Nc2ccc(Br)cn2)COc2ccccc2OC1`: the inhibition is inactive: 6.28%.

Regarding `NS(=O)(=O)c1cccc(NC(=O)COC(=O)C(O)(c2ccccc2)c2ccccc2)c1`, the inhibition was inactive: -15.1%.

For the compound `Nc1cccc([As](=O)(O)c2ccccc2)c1`, the inhibition was inactive: -4.51%.

As to `O=P1(Nc2ncccn2)COc2ccccc2OC1`, the inhibition was inactive: -4.16%.

Regarding `Nc1ccccc1[As](=O)(O)c1ccccc1`, the inhibition was inactive: 5.06%.

Take `O=C(O)COc1ccc([As](=O)(O)O)cc1[N+](=O)[O-]`: the inhibition is inactive: 1.14%.

On to `CS(=O)(=O)c1cc([N+](=O)[O-])c2no[n+]([O-])c2c1`, for which the inhibition was inactive: 1.7%.

Regarding `CCOP1(=S)c2c(C)nn(CCC#N)c2N=C(c2ccccc2F)N1C` (stereo not given), the inhibition was inactive: 0.48%.

In the case of `O=P(Nc1nccs1)(Oc1ccccc1)Oc1ccccc1`, the inhibition was inactive: 7.63%.

With `O=P(Nc1nccs1)(c1ccccc1)c1nc2ccccc2s1` (stereo not given), the inhibition is inactive: -2.09%.

Regarding `O=[N+]([O-])c1ccc2c(c1)nnn2O`, the inhibition is inactive: 6.28%.

For `CN(C)C(=O)c1cc([N+](=O)[O-])cc2c1-c1c(cc([N+](=O)[O-])cc1[N+](=O)[O-])C2=O`, the inhibition was inactive: -2.85%.

`CN(C(=O)Cc1ccc(Cl)c(Cl)c1)[C@H]1CC[C@@]2(CCCO2)C[C@@H]1N1CCCC1`: the inhibition is inactive: -1.99%.

`N#CCCN(C(=O)COC(=O)C(O)(c1ccccc1)c1ccccc1)c1ccc(F)cc1`: the inhibition is inactive: -4.61%.

Turning to `CCOP1(=S)c2c(C)nn(CCC#N)c2N=C(c2ccc(F)cc2)N1C` (stereo not given), the inhibition was inactive: -0.09%.

Regarding `CN(C(=O)Cc1ccccc1)[C@@H]1CC[C@]2(CCCO2)C[C@H]1N1CCCC1`, the inhibition is inactive: -4.39%.

As for `NC(=O)Nc1ccc([As](=O)(O)O)cc1`, the inhibition was inactive: -9.85%.

As to `Cc1cccc(OCC(=O)OC2CN3CCC2CC3)c1` (stereo not given), the inhibition was inactive: -6.55%.

As for `O=[As](O)(c1cccc(O)c1)c1cccc(O)c1`, the inhibition is inactive: -4.59%.

Regarding `O=[As](O)(O)c1cccnc1`, the inhibition was inactive: -2.02%.

`COc1cc(C(=O)NCC2(N3CCOCC3)CCCCC2)cc(Cl)c1OC(C)C`: the inhibition is inactive: 0.32%.

Turning to `CS(=O)(=O)c1ccc(Cl)c(NC(=O)COC(=O)C(O)(c2ccccc2)c2ccccc2)c1`, the inhibition was inactive: -13.9%.

Take `O=C(OC1CN2CCC1CC2)c1ccc(Cl)cc1` (stereo not given): the inhibition was inactive: -8.36%.

As to `COc1cc(C2NCCC3(OCCO3)C2(C)C)cc(OC)c1OC` (stereo not given), the inhibition was inactive: -3.3%.

With `CCOP(=O)(Nc1cccc2ccccc12)OCC`, the inhibition was inactive: 3.18%.

On to `CCCOP(=S)(Nc1nc(N)cc(=O)[nH]1)OCCC`, for which the inhibition is inactive: -2.19%.

As to `Nc1cccc2c([As](=O)(O)O)cccc12`, the inhibition was inactive: -2.46%.

On to `Cc1ccc(NCCc2c([N+](=O)[O-])cc([N+](=O)[O-])cc2[N+](=O)[O-])cc1`, for which the inhibition is inactive: 2.78%.

`COc1ccc2nc(NP(=O)(c3ccccc3)c3ccccc3)sc2c1`: the inhibition is inactive: -11.1%.

In the case of `COc1cc(I)ccc1[As](=O)(O)O`, the inhibition was inactive: -0.59%.

On to `O=P1(N(CCCl)CCCl)OCCCN1CCCl` (stereo not given), for which the inhibition is inactive: 0.29%.

Turning to `O=P1(N(CCCl)CCCl)Nc2ccccc2N1`, the inhibition was inactive: 0.73%.

With `O=C(OC1CN2CCC1CC2)C12CC3CC(CC(C3)C1)C2` (stereo not given), the inhibition was inactive: -0.57%.

As for `Cc1cc(=O)[nH]c(N[N+](=O)[O-])n1`, the inhibition is inactive: -0.06%.

With `Cc1c2c(nc3ccccc13)SC(C(Cl)Cl)C2` (stereo not given), the inhibition is inactive: -5.88%.

As for `COc1ccc(N/C(=N/P(=O)(N2CCOCC2)N2CCOCC2)N2CCOCC2)cc1`, the inhibition was inactive: -4.71%.

Regarding `O=[N+]([O-])c1cc(Oc2ccc([N+](=O)[O-])cc2C(F)(F)F)cc([N+](=O)[O-])c1`, the inhibition is inactive: -2.71%.

In the case of `Cc1ccc2nc3c(c(C)c2c1)CC(C(Cl)Cl)S3` (stereo not given), the inhibition was inactive: 4.28%.

As for `Cc1ccc(OP(=O)(Nc2ccc([N+](=O)[O-])cn2)Oc2ccc(C)cc2)cc1`, the inhibition is inactive: 5.01%.

Consider `O=[As](O)(c1ccc(O)cc1)c1ccccc1O`, for which the inhibition is inactive: -0.81%.

With `C[As](=O)(O)c1cccc(C(=O)O)c1`, the inhibition is inactive: -2.98%.

Take `O=[N+]([O-])c1ccc(-c2cc([N+](=O)[O-])c(O)c([N+](=O)[O-])c2)cc1`: the inhibition is inactive: -7.9%.

With `COc1cc(C(=O)NCC2(N3CCOCC3)CCCCC2)ccc1OCC(C)C`, the inhibition was inactive: -6.77%.

As for `CC(C)NC(=O)NP(=O)(Oc1ccccc1)Oc1ccccc1`, the inhibition is inactive: -3.85%.

`O=C(OC1CN2CCC1CC2)c1cccc2[nH]cnc12` (stereo not given): the inhibition was inactive: -0.96%.

Regarding `CCN(CC)C(=S)SC(NC=O)C(Cl)(Cl)Cl` (stereo not given), the inhibition is inactive: 4.35%.

For `O=[N+]([O-])c1cc([N+](=O)[O-])c(-c2ccn[nH]2)s1`, the inhibition was inactive: -5.67%.

In the case of `COC(=O)C1(C)COP(=O)(N2CCCCCC2)OC1` (stereo not given), the inhibition is inactive: 2.45%.

`CC(C)c1ccc(OP(=O)(Nc2ccccn2)Oc2ccccc2F)cc1` (stereo not given): the inhibition is inactive: -1.81%.

Turning to `ClCCSc1nnc(-c2cccnc2)o1`, the inhibition was inactive: -8.22%.

On to `CCCCOc1ccc(C(=O)NCC2(N3CCCCC3)CCCCC2)cc1OC`, for which the inhibition is inactive: 4.29%.

Consider `Cc1cc(SC(NC(=O)c2ccccc2)C(Cl)(Cl)Cl)nc(C(C)C)n1` (stereo not given), for which the inhibition is inactive: 0.76%.

As to `CC1CCNP(=O)(N(CCCl)CCCl)O1` (stereo not given), the inhibition is inactive: -2.29%.

With `CCOC(=O)Nc1ccc([As](=O)(O)O)c(O)c1`, the inhibition is inactive: 7.33%.

Consider `O=[N+]([O-])c1ccc(Nc2ccc(Oc3ccc([N+](=O)[O-])cc3[N+](=O)[O-])cc2)c([N+](=O)[O-])c1`, for which the inhibition is inactive: -7.05%.

In the case of `O=P(Nc1ccccn1)(c1cccc2ccccc12)c1cccc2ccccc12`, the inhibition was inactive: -16.2%.

As to `Cc1cc(SC(NC=O)C(Cl)(Cl)Cl)ncn1` (stereo not given), the inhibition was inactive: 5.56%.

On to `CCOC(=O)Nc1cccc([As](=O)(O)O)c1`, for which the inhibition is inactive: 5.62%.

In the case of `O=C(COc1ccccc1)OC1CN2CCC1CC2` (stereo not given), the inhibition is inactive: -4.13%.

For the compound `O=C(Nc1ccncc1[N+](=O)[O-])c1ccc([N+](=O)[O-])cc1[N+](=O)[O-]`, the inhibition is inactive: -3.94%.

Take `COP1(=S)c2c(C)nn(CCC#N)c2N=C(c2ccc(F)cc2)N1C` (stereo not given): the inhibition was inactive: 3.03%.

In the case of `CCC(C)N(CC(C)C)C(=S)SC(NC(C)=O)C(Cl)(Cl)Cl` (stereo not given), the inhibition is inactive: -2.74%.

For `CCOC(=O)c1ccc(NC(=O)C(C)(CCl)SC)cc1` (stereo not given), the inhibition is inactive: 0.99%.

With `O=C(OC1CN2CCC1CC2)c1cccc([N+](=O)[O-])c1` (stereo not given), the inhibition is inactive: -6.31%.

On to `O=[N+]([O-])c1cccc2n[nH]nc12`, for which the inhibition was inactive: -3.76%.

In the case of `CC(=O)N1C2C3N(C(C)=O)C1C1N(C(C)=O)C(C(N1C(C)=O)N3C(C)=O)N2C(C)=O`, the inhibition was inactive: -1.13%.

Take `Cc1ccc(NP(=O)(Oc2ccccc2)Oc2ccccc2)nc1`: the inhibition was inactive: 2.08%.

With `CCc1nc2c(n1)c1c(non1O)c1c2no[n+]1[O-]`, the inhibition is inactive: -1.69%.

For `O=[N+]([O-])c1cc([N+](=O)[O-])c(CCNc2ccccc2)c([N+](=O)[O-])c1`, the inhibition was inactive: -1.59%.

With `COc1ccc(C2=NCC(CBr)S2)cc1` (stereo not given), the inhibition is inactive: -13.3%.

For the compound `CC(C)=N/N=C(\N)N[N+](=O)[O-]`, the inhibition was inactive: -6.98%.

`CN(C)C(=O)OCCc1n(C)cc[n+]1C`: the inhibition is inactive: 7.74%.

Turning to `CC1CCN(C(=O)Oc2c(Cl)cc(Cl)c3cccnc23)CC1`, the inhibition was inactive: 16.4%.

Turning to `Nc1ccc([As](=O)(O)c2ccc(N)cc2)cc1`, the inhibition is inactive: -10%.

Take `C[N+]1=C2C=CC=CC=C2SC12C([N+](=O)[O-])=CC([N+](=O)[O-])=C[C-]2[N+](=O)[O-]` (stereo not given): the inhibition is inactive: -2.25%.

Turning to `CCN(/C(=N/P(=O)(N1CCOCC1)N1CCOCC1)N1CCOCC1)c1ccc(OC)cc1`, the inhibition is inactive: -2.54%.

Take `O=C(Nc1cc([As](=O)(O)O)ccc1O)c1ccccc1`: the inhibition is inactive: 0.75%.

As to `O=P1(N(CCCl)CCCl)OCCCS1` (stereo not given), the inhibition is inactive: -3.18%.

In the case of `COC(=O)C1(C)COP(=O)(Nc2ccccc2)OC1` (stereo not given), the inhibition was inactive: -8.95%.

Consider `O=[N+]([O-])c1cccc(NC2=NCC(CBr)S2)c1` (stereo not given), for which the inhibition was inactive: -5.03%.

For the compound `O=C(O)CNc1ccc([As](=O)(O)O)cc1`, the inhibition was inactive: -1.8%.
